Reference: BindingDB's records for patent US20250213705 (Bright Peak Therapeutics, 2025)

Chains of the proteins cited; added tags and fusions are not shown.
UniProt Q04609, whole entry: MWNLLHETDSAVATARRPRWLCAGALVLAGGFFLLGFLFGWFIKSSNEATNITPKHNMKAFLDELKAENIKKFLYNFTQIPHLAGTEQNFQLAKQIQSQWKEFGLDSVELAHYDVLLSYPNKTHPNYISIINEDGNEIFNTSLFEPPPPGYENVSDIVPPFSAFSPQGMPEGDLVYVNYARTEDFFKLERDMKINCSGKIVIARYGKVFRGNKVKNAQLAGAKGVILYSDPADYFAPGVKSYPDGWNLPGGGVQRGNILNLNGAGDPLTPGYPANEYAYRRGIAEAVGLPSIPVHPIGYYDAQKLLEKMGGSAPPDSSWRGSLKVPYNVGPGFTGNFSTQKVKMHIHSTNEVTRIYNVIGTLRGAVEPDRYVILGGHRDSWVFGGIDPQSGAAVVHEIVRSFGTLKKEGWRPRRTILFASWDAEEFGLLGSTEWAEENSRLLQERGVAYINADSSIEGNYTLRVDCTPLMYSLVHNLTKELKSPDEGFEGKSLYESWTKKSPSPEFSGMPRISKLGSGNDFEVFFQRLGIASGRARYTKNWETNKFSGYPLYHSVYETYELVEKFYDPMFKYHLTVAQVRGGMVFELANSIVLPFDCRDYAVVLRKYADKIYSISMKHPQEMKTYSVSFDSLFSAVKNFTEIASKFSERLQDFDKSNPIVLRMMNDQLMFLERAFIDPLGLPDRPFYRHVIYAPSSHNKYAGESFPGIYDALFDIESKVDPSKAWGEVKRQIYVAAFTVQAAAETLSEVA

Target: Glutamate carboxypeptidase 2 (Homo sapiens, UniProt Q04609)
Test: Inhibition Assay
Method: Prepare a working solution of 100 μM Amplex Red reagent containing 0.25 U/mL HRP, 0.08 U/mL L-glutamate oxidase, 0.5 U/mL 1-glutamate-pyruvate transaminase, 200 μM L-alanine and keep protected from light. […] Final concentration is 5 nM. Transfer 10 μl/well of the inhibitor solution previously prepared in a separate 96 wells/plate. […] Incubate the reactions for 30 min at 37° C., protected from light. Because the assay is continuous (not terminated), fluorescence may be measured at multiple time points to follow the kinetics of the reactions. Measure the fluorescence in a fluorescence microplate reader using excitation in the range of 530-560 nm and emission detection at ˜590 nm. Ec50s were determined with GraphPad Prism. Ki is calculated based on Cheng-Prusoff equation.

SMILES	pIC50	pKi
CC(=O)N[C@@H](Cc1ccc(O)cc1)C(=O)N[C@@H](Cc1ccc(O)cc1)C(=O)N[C@@H](CO)C(=O)N[C@@H](CO)C(=O)N[C@@H](CCC(=O)O)C(=O)N[C@@H](CCC(=O)O)C(=O)NCC(=O)N[C@@H](Cc1ccc(C(=O)O)cc1)C(=O)NCC(=O)N[C@@H](Cc1c[nH]c2ccccc12)C(=O)NCCCC[C@H](NC(=O)N[C@@H](CCC(=O)O)C(=O)O)C(=O)O [US20250213705, Compound 117]	9.53	11.70
CC(=O)NCCOCCOCCOCCC(=O)N[C@@H](Cc1cccc(C(=O)O)c1)C(=O)NCC(=O)N[C@@H](Cc1ccc2ccccc2c1)C(=O)NCCCC[C@H](NC(=O)N[C@@H](CCC(=O)O)C(=O)O)C(=O)O [US20250213705, Compound 84]	–	10.43

pIC50, pKi: −log10 of the molar value.
